PMC7723054
The list shows a part of the results.

T1: LIN28A (human?, UniProt Q9H9Z2 1-209)
T1 sequence: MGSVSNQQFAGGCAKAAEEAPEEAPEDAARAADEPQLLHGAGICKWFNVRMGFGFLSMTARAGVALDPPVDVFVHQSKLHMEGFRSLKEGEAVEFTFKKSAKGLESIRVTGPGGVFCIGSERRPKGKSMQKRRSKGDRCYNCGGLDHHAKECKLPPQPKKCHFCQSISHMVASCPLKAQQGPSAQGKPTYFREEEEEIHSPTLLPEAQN

T2: CIRBP (Homo sapiens, UniProt Q14011 1-172)
T2 sequence: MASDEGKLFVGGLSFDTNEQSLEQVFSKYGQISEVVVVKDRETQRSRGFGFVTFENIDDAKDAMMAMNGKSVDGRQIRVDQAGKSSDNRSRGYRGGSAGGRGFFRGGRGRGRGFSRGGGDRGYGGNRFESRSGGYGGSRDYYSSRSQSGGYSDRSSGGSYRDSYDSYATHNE

T3: DHX36 (Homo sapiens, UniProt Q9H2U1 1-1008)
T3 sequence: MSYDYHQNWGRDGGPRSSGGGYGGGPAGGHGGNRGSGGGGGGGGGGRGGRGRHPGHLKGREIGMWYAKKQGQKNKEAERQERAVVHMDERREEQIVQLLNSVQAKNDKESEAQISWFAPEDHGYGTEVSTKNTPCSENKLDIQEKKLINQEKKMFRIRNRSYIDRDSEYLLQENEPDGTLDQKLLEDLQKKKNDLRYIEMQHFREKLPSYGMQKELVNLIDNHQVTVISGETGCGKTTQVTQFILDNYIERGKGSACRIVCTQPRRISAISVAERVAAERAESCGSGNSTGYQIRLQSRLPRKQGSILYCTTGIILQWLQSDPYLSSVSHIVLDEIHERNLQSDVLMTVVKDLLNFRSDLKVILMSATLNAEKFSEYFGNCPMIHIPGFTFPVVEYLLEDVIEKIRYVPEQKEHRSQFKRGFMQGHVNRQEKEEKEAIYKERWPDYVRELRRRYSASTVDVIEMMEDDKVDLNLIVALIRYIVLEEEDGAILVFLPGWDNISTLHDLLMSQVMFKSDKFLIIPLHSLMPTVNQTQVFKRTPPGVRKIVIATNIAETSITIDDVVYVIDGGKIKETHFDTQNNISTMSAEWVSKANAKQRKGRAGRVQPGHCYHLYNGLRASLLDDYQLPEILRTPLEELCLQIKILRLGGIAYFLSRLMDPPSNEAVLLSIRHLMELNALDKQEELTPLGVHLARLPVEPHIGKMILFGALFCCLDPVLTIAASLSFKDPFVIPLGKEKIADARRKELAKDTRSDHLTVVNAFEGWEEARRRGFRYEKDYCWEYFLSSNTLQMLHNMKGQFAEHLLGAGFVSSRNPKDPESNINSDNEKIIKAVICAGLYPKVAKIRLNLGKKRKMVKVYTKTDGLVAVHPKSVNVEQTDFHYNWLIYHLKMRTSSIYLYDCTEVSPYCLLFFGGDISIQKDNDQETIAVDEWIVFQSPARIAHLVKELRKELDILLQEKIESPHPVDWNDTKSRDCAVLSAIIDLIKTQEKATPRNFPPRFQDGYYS

B1: hsa-mir-33a (structured_RNA)
RNA: GGGAGUAGAACGUGAGCGCGUAUCAAUAGGUGUACGAAGUUUCAGCAUUGCAUGUUCUGGUGGUACCCAUGCAAUGCUGAAGCUUCGUGCAC
B2: hsa-mir-539 (structured_RNA)
RNA: GGGAAACGGUUAUUAGCCCUGCUCUCCGGGUGUACGAAGUUUCAGCUGUUCGCUUUAUUUAUGAUGAAUCAGCUGAAGCUUCGUGCAC
B3: hsa-mir-4704 (structured_RNA)
RNA: GGGACCUGCCGUAAGGUAUAAGCCGACAGGUGUACGAAGUUUCAGCGUGAUUGUCUUCCUCACUCAAUCAGGCUGAAGCUUCGUGCAC
B4: hsa-mir-6740 (structured_RNA)
RNA: GGGAAUAAAACGGGCGAGCGCACUCAACGGUGUACGAAGUUUCAGCGAGAAACUUGAGGUCUCUGGGAGUUGCUUAAACCAGUUGACCGUAACCUGGCCAGAGAAUUCUGAUAGUGUCGCUGAAGCUUCGUGCAC
B5: PARIS_ID30 (structured_RNA)
RNA: GGGAAGUCGGGCUAAAGCCAUCACAAAAGGUGUACGAAGUUUCAGCUAUUCUCUCUGUUGGAACUCAAAUACACAGAACUGGGUAGCUGAAGCUUCGUGCAC
B6: hsa-mir-1297 (structured_RNA)
RNA: GGGAAUUACCGAGCGAGGUACGAAAUGAGGUGUACGAAGUUUCAGCAGAAUUACUUAUCUGAGCCAAAGUAAUUCAGCUGAAGCUUCGUGCAC
B7: hsa-mir-7161 (structured_RNA)
RNA: GGGAACUGGUGCCGAGACCGACAUUACUGGUGUACGAAGUUUCAGCCUGGUGUUCUCACGCAAAGUGGCCAGGGUGUGGGAGACUAGAGCUGAAGCUUCGUGCAC
B8: hsa-mir-3688-2 (structured_RNA)
RNA: GGGAACGCGAGCGACGCCAUUUAGUAACGGUGUACGAAGUUUCAGCCAUAUGUGUAACAGACAUACAUACAUACAUAUGGCUGAAGCUUCGUGCAC
B9: hsa-mir-7973-1 (structured_RNA)
RNA: GGGAAGACUGUCGGCACCUUAGUCUUCGGGUGUACGAAGUUUCAGCUUACCCAACGUCUCUGAGUCUCGGUUUUGAGAGGGUGAGUAAGCUGAAGCUUCGUGCAC
B10: hsa-mir-7110 (structured_RNA)
RNA: GGGAACCCGGAAUUGACGUAGAAACGAAGGUGUACGAAGUUUCAGCGAGAGAGUGCACAGCCAGCUCAGGGAUUAAAGCUCUUUCUCUCUCUCUCGCUGAAGCUUCGUGCAC
B11: hsa-mir-3165 (structured_RNA)
RNA: GGGCCCACGCCAAAAUUGACGCCUAACCGGUGUACGAAGUUUCAGCCUCAACUCUUGGUCCUCUGAGGCUGAAGCUUCGUGCAC
B12: hsa-mir-3187 (structured_RNA)
RNA: GGGAAAACACAGUAGAGGCCACCCACGUGGUGUACGAAGUUUCAGCUGAAGGUCACCAUGUUCUCCUUGGCUGAAGCUUCGUGCAC
B13: hsa-mir-448 (structured_RNA)
RNA: GGGAAGGUCUCGACUGCAGUCCAACUACGGUGUACGAAGUUUCAGCGCUGCCAGGAAAUCCCUAUUUCAUAUAAGAGGGGGCUGGCUGGUUGCGCUGAAGCUUCGUGCAC
B14: hsa-mir-8075 (structured_RNA)
RNA: GGGAAUAAGCCGUUCGCAUCUCCAAAGCGGUGUACGAAGUUUCAGCGCUUAUACGUGCCCUUGCUGCUGAAGCUUCGUGCAC
B15: hsa-mir-548ag-2 (structured_RNA)
RNA: GGGACACCACGGGUUGACACUCUCGAUCGGUGUACGAAGUUUCAGCCUGCCAUUGAAAGUAAAGGCAAGCUGAAGCUUCGUGCAC
B16: hsa-mir-1282 (structured_RNA)
RNA: GGGACCGAAAUCUAGAACUGCCCCUGGAGGUGUACGAAGUUUCAGCGCUUCUGCUGCAUGAUCUCCGAGUCCCUGGGGGUAGAGAUGAUGGGGCACUGGGAGGUGCUGAAGCUUCGUGCAC
B17: hsa-mir-6758 (structured_RNA)
RNA: GGGAAUGACGUGAGUCGCCAUAAUCUACGGUGUACGAAGUUUCAGCAUGUGAUGUGAGCAGAUGGUUCUCACUGCUGAAGCUUCGUGCAC
B18: hsa-mir-4536-1 (structured_RNA)
RNA: GGGAAUUGCUUCUGGAACGGCUGUGUGAGGUGUACGAAGUUUCAGCACGAUAUAUAUACUGCCCUGCUUUUAUACAUACAUACAUACAUACCUAUAUCGUGCUGAAGCUUCGUGCAC
B19: hsa-mir-7704 (structured_RNA)
RNA: GGGAAAAGCAAACGCCUGGUGUAUCUGUGGUGUACGAAGUUUCAGCCGUGCUCAGCUUGGCACCCAAGUUCUGCGCUGAAGCUUCGUGCAC
B20: hsa-mir-4531 (structured_RNA)
RNA: GGGACUAAGGGUACAAACACGGGUACGAGGUGUACGAAGUUUCAGCCAGUGGGGACAUGGCUGAAGCUUCGUGCAC
B21: hsa-mir-214 (structured_RNA)
RNA: GGGAGGAUCACGCUUAUAAUCCGAGUACGGUGUACGAAGUUUCAGCCUGUGCAGAACAUCCGCUCACCUGUACAGGCUGAAGCUUCGUGCAC
B22: hsa-mir-4501 (structured_RNA)
RNA: GGGAAGUCGCGAAGCACACUGACCAAGAGGUGUACGAAGUUUCAGCAUCACUGAAAUAUGUCUGAGCUUCUGUUGCUGAAGCUUCGUGCAC

Tests used:
Test in all cases: FOREST: bead pull-down of RNA structure library v1, barcode microarray; U1A/LIN28A: 20 mM HEPES pH 7.5, 80 mM KCl, 20 mM NaCl, 10% glycerol, 2 mM DTT, 0.1 ug/uL BSA, 4 C; BG4/CIRBP/DHX36: 10 mM Tris-HCl pH 7.5, 100 mM KCl (or LiCl),; high values mean tight binding
U1A = U1A (Homo sapiens, UniProt P09012)
LIN28A = biological target: T1, LIN28A
CIRBP = biological target: T2, CIRBP
DHX36 = biological target: T3, DHX36

| Binder | binding signal (U1A) [z-score] | binding signal (LIN28A) [z-score] | binding signal (CIRBP) [z-score] | binding signal (DHX36) [z-score] |
| --- | --- | --- | --- | --- |
| B1 | 0.258 | 0.0186 | -0.854 | -0.679 |
| B2 | 0.234 | -0.582 | -0.174 | -0.504 |
| B3 | 0.253 | -0.156 | -0.177 | 0.409 |
| B4 | 0.252 | 0.905 | -0.0881 | 1.35 |
| B5 | 0.264 | -0.162 | -0.0498 | -1.17 |
| B6 | 0.232 | 0.0606 | -0.675 | 1.59 |
| B7 | 0.236 | 0.61 | -0.507 | -0.628 |
| B8 | 0.252 | 2.34 | 2.68 | -0.161 |
| B9 | 0.241 | -1.3 | -1.31 | -0.197 |
| B10 | 1.87 | 1.51 | 1.81 | 1.47 |
| B11 | 0.235 | -1.42 | -0.534 | -0.247 |
| B12 | 0.231 | -0.797 | -0.448 | -0.552 |
| B13 | 0.262 | -0.846 | -1.18 | 0.0113 |
| B14 | 0.259 | 0.462 | 0.528 | 0.175 |
| B15 | 0.255 | 0.664 | -1.21 | -0.989 |
| B16 | 0.258 | -0.344 | -0.466 | -0.334 |
| B17 | 0.236 | 1.03 | 1.56 | 0.805 |
| B18 | 3.67 | 1.68 | 1.36 | 1.14 |
| B19 | 0.24 | 0.36 | -0.0213 | -0.311 |
| B20 | 0.264 | 0.9 | 0.164 | 1.54 |
| B21 | 1.88 | 0.537 | -0.201 | 0.916 |
| B22 | 0.256 | 0.97 | -0.368 | -0.123 |
